The values below come from US10016499B2, “Multifunctional metal nanoparticles having a polydopamine-based surface and methods of making and using the same” (Northwestern University, priority 2011, dated 2018).

Common to all, as to type: cell-based
Assay [1] has as its system oral cancer cells (OSCC15). The assay can be described thus: OCT imaging of oral cancer cells with NRs (Example 1). The following applies: compared to uncoated control cells. The procedure:
Oral squamous cell carcinoma 15 (OSCC15) cells were grown in DMEM containing 10% FBS and 4% gentamycin. To image cells with NRs, 2 mL of trypsin was added to confluent plates of OSCC15 cells, cells were removed, and 400 μL was added to 2 mL of DMEM high glucose media. Cells were centrifuged at 1500 rpm for 5 minutes, supernatant was removed, and 2 mL more media was added. NR suspensions from above were added to the cells and incubated for 30 minutes. Cells were centrifuged at 1500 rpm for 5 minutes, supernatant was removed, 2 mL of media was added, and finally cells were centrifuged and plated onto glass optical microscopy slides.
Bright field images were acquired in a Leica DMRX microscope. Additionally, optical coherence tomography (OCT) was acquired. A visible band Fourier-domain OCT was used in this study. The system adopts a commonpath parallel configuration and the schematic is described in a previous paper. The parallel configuration allowed simultaneous 2D B-scan OCT image acquisition (^˜1 mm cross and ^˜300 μm deep) with 5 fps frame rate. 3-D images were obtained by scanning the sample stage across the B-scan image plane. The axial resolution was ^˜1.5 μm given by the bandwidth (540-650 nm), and the transverse resolution and depth of focus were ^˜6 μm and ^˜200 μm, respectively. […]

A further assay deals with OSCC cells. Put plainly: Long term cellular toxicity (calcein / ethidium bromide fluorescence). The following applies: OSCC15 cells, NRs 0-95 μM Au, 20-48 hours, no irradiation. On the procedure: For long term toxicity experiments, NRs (0-95 μM Au) were incubated with OSCC cells in 6 and 12 well plates with 1 mL DMEM high glucose media for 20-48 hours. 15 minutes before toxicity quantification, 1 μL 4 mM calcein and 1 μL 4 mM ethedium bromide was added to each well, and cells were incubated for 15 minutes. Fluorescence microscopy was performed on a Leica DM IRB light microscope and a QImaging QI Click camera. Red- and green-channel were acquired for each condition in triplicate, cells were counted manually, and an average percent viable cell percentage was calculated for each condition.

Assay [2] has as its system low-EGFR expressing MCF7 breast cancer cells. The assay can be described thus: Quantitative OCT cell imaging (NR binding), MCF7. Conditions: any of the concentrations tested. On the procedure: 5×10^5 oral squamous cell carcinoma 15 (OSCC15), MDA-MB-231 (breast) and MCF7 (breast) cancer cells were grown in tissue culture plates for 3 days. OSCC15 cells were grown in high glucose DMEM (10% FBS, 1% gentamycin), MCF7 cells were grown in high glucose DMEM both with and without insulin (10% FBS, 1% pen/strep), and MDA-MB-231 cells were grown in RPMI-1640 media (10% FBS, 1% pen/strep). 2 mL of trypsin was added to confluent plates of OSCC15 cells, cells were removed, and 400 μL was added to 2 mL of DMEM high glucose media. Cells were centrifuged at 1500 rpm for 5 minutes, supernatant was removed, and 2 mL more media was added. NR suspensions were added to the cells and incubated for 30 minutes. Cells were centrifuged at 1500 rpm for 5 minutes, supernatant was removed, 2 mL of media was added, and finally cells were centrifuged and plated onto glass optical microscopy slides. Bright field images were acquired in a Leica DMRX microscope. […] OCT intensity between 750 and 850 nm localized to individual cells was quantified and plotted as a function of antibody concentration. […]
Inside the spectrometer, the interfered beam was collimated by an f=30 mm lens and directed to a holographic diffraction grating (1200 grooves/mm). […] Cells were identified in the image, and the average pixel intensity per cell between 750-850 nm was quantified to determine NR density.

The test system of assay [3] is MDA-MB-231 breast cancer cells (high EGFR expression). Put plainly: Quantitative OCT cell imaging (NR binding), MDA-MB-231. Conditions: MDA-MB-231, 750-850 nm, antibody 5.7 nM ([NR]=14 pM), 1 hour.

For the substance “ERBITUX® (cetuximab)-conjugated silver-coated gold nanorods: PD-coated gold nanorods silverized with AgNO3 and conjugated with cetuximab”, the OCT signal entry in assay [1] is reported as “bright signal”.
On to “NR sample conjugated to both bortezomib and ERBITUX® (cetuximab): PD-coated gold nanorods with bortezomib, capped with cetuximab instead of PEG-SH”, for which the cellular toxicity entry in the assay with OSCC cells is on record as “toxicity was significantly increased”.
In the case of “anti-EGFR-PD-NRs: polydopamine-coated gold nanorods functionalized with anti-EGFR antibody (ERBITUX, cetuximab)”, in assay [2], the OCT intensity change result is listed as “No increase in intensity was observed”. Besides, the “increase in NIR light (OCT) intensity localized to cells” value in assay [3] is 4.1 fold; in assay [3] (listed as Anti-EGFR-PD-NRs), 4 fold.
